Experimental data published in ChEMBL document CHEMBL5725429, “P2X7 modulators” (2017).

Target: T1, P2X purinoceptor 7 (Rattus norvegicus, UniProt Q64663)
T1 sequence (Q64663 whole entry): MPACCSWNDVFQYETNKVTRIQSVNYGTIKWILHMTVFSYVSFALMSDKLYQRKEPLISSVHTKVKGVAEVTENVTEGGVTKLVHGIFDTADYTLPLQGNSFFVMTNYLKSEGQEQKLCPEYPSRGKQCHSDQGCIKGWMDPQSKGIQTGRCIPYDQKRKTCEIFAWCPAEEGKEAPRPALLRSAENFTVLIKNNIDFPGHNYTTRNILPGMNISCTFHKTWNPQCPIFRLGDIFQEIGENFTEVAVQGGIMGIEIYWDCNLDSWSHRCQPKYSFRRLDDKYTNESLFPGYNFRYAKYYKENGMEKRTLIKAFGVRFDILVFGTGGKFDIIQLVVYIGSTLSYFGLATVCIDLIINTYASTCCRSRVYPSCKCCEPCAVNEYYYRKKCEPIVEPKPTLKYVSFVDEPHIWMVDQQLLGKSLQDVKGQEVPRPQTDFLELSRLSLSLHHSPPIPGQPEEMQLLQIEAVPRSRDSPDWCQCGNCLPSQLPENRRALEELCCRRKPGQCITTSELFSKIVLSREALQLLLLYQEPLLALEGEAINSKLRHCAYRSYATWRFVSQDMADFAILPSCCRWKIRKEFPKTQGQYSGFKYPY
Assay: Ca2+ Flux Assay: 1321N1 cells expressing the recombinant human or rat P2X7 channel was cultured in HyQ DME/(HyClone/Dulbecco's Modified Eagle Medium) high glucose supplemented with 10% Fetal Bovine Serum (FBS) and appropriate selection marker. Cells were seeded at a density of 25000 cells/well (96-well clear bottom black walled plates) in 100 μl volume/well. On the day of the experiment, cell plates were washed with assay buffer, containing (in mM): 130 NaCl, 2 KCl, 1 CaCl2, 1 MgCl2, 10 HEPES, 5 glucose; pH 7.40 and 300 mOs. After the wash, cells were loaded with the Calcium-4 dye (Molecular Device) and incubated in the dark for 60 minutes. Test compounds were prepared at 250× the test concentration in neat DMSO. Intermediate 96-well compound plates were prepared by transferring 1.2 μL of the compound into 300 μL of assay buffer. A further 3× dilution occurred when transferring 50 μL/well of the compound plate to 100 μL/well in the cell plate. Cells were incubated with test compounds and dye for 30 minutes. Calcium dye fluorescence was monitored in FLIPR as the cells were challenged by adding 50 μL/well of BzATP (final concentration is 250 μM BzATP (human and rat)).
Type: cell-based

For Cc1cccc(-c2nnc3n2C[C@H]2CCC[C@@H]3N2C(=O)c2cccc(C(F)(F)F)c2Cl)n1 (single isomer, unassigned), the Ki was 5 nM.
